Earlier results in patent US10357533B2, “Drug for the effective control of acute and or chronic pain and a method for its administration” (PVP LABS PTE. LTD., priority 2016, dated 2019).

Test system: mice
Conditions: dosage 10 mg/kg, published data; cited from earlier work

SMILES: CN1CC[C@]23c4c5ccc(O)c4O[C@H]2[C@@H](O)C=C[C@H]3[C@H]1C5 [Morphine, reference compound]
- duration of the analgesic effect: 2 to 3 h
